Results taken from US20050096381A1, “Derivatives of isoflavones” (YEDA & MEDICAL RESEARCH, priority 2002, published 2005).

Tested on: E304 endothelial cells (expressing mainly ERα)
Assay: DNA synthesis by [3H]-thymidine incorporation in E304 cells
Settings: cells bearing mainly ERα

6-carboxymethyl biochanin A daunomycin conjugate [Cbio-daunomycin]
cytotoxic activity towards E304 cells (in words): potent cytotoxic activity
